One assay relates to Bronco snap beans. Nature of the assay: Snap bean laboratory tests: seed germination and root radical growth in modified ragdolls. The format is in vivo. The following applies: supplement to the standard seed treatment, compared to the distilled water control.
The test system of assay [1] is soybean seedling diseases (Rhizoctonia solani, Macrophomina phaseolina, and Fusarium spp.). Kind of assay: Soybean field research test (seed, in-furrow fertilizer and potash form; Tables 15 to 18). The following applies: in vivo.

SMILES strings stand for the structures.

On to `O=C[O-].O=C[O-].[Ca+2]` [calcium formate], for which the “length of the root radical of germinating seed two days after planting” value in the assay on Bronco snap beans is recorded as “significantly decreased”.
`CC(O)C(=O)[O-].CC(O)C(=O)[O-].O.O.O.O.O.[Ca+2]` (centres unmarked) [calcium lactate, calcium lactate pentahydrate]: the “length of the root radical of germinating seed two days after planting” value in the assay with Bronco snap beans was “significantly decreased”. Also, the “Stands of healthy plants” value in assay [1] is given as “initially highest”.
For `O.O.O=C([O-])c1ccccc1O.O=C([O-])c1ccccc1O.[Ca+2]` [calcium salicylate, calcium salicylate dihyrate], in that order: “significantly decreased” and “highest in early August”.

Source of the values: US20160302412A1, “USES OF SALICYLIC ACID” (UNIVERSITY OF TENNESSEE RESEARCH FOUNDATION, priority 2013, published 2016).
